Assay results: US7851650B2, “Compounds for treating inflammation and pain” (Olatec Industries LLC, priority 2009, dated 2010)

With 2-N halo-4-methylsulfonyl-butyric acid the “stability in the organic solvent at room temperature” value (organic solvent extract, room temperature (22-28 C), for at least a month) was “stable” and the “stability of lyophilized product upon exposure to water or air” value (white lyocake from aqueous reaction, flash frozen at -80 C, lyophilized, sealed under inert gas, then exposed to water or air) was “immediately underwent oxidative degradation”.
